The list shows a part of the results, in another mix than the full data. Activity calls are given as the source filed them.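 How the source made its calls: active means activity above about 14% (limit read from the data; passing the limit was not always enough); inactive means the rest.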
Biological target: Nuclear receptor subfamily 1 group D member 1 (Homo sapiens) (UniProt P20393)
Assay: modulators of Rev-erb alpha DNA binding, primary screen, biochemical, FITC-DNA, fluorescence polarization, uHTS (AID 1259318);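 further: 0% = DMSO wells with 35 nM protein and 100% = DMSO wells with 750 nM protein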
Conditions: Rev-erbα–FITC-DNA binding, 90 min, at 10 µM, hits give high values

By UniProt entry, the sequences of proteins in these tests, tags left out. Where a name states a change or a piece, a line headed by the entry shows the natural chain unless it says otherwise.
UniProt P20393: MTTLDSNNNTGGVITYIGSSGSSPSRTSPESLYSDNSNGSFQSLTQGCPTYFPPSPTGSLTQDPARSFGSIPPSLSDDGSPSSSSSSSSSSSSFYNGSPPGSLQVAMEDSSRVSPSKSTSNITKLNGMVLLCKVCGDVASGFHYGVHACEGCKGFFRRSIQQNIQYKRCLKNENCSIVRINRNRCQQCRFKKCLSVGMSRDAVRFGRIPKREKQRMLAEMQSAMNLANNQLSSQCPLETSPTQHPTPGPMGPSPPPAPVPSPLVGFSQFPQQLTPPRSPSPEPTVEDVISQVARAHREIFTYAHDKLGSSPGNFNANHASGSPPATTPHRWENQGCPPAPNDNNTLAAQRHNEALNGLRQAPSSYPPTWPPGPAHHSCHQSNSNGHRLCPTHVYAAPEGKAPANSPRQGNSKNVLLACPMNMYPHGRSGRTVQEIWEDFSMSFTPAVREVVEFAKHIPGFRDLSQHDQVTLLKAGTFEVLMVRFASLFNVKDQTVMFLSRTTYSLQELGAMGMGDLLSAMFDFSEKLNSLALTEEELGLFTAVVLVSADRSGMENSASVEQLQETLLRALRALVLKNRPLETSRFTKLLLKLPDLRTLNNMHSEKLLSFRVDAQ

Row | SMILES | activity
1 | Cc1ccc(NP(=O)(Oc2ccccc2F)Oc2ccccc2F)nc1 | inactive: -0.39%
2 | CN(C(=O)Cc1ccc(Cl)c(Cl)c1)[C@H]1CCCC[C@@H]1N1CCCC1 | inactive: -5.53%
3 | CCOP(=O)(Nc1ccccc1)OCC | inactive: -0.61%
4 | Cc1cc(SC(NC(=O)c2ccc(F)cc2)C(Cl)(Cl)Cl)ncn1 (stereo not given) | inactive: -1.54%
5 | CCn1c(=O)n(C2CCN(CC3CCCCCCC3)C[C@H]2CO)c2ccccc21 (stereo not given in full) | inactive: -4.41%
6 | CCCC1OP(N)(=O)OCC1CC (stereo not given) | inactive: 6.18%
7 | O=C(O)c1ccccc1[As](=O)(O)O | inactive: 3.62%
8 | CC(=O)Nc1ccc([As](=O)(O)O)cc1 | inactive: -5.22%
9 | CN(C)P(=O)(N(C)C)n1c(Nc2ccccc2)nnc1-c1ccccc1 | inactive: 0.9%
10 | O=P(Nc1nc2ccc(Cl)cc2s1)(c1ccccc1)c1ccccc1 | inactive: 2.74%
11 | CCN(N=Nc1nonc1N)c1nonc1N | inactive: -0.13%
12 | CN(C(=O)Cc1ccccc1)C1CC[C@@]2(CCCO2)C[C@@H]1N1CCCC1 (stereo not given in full) | inactive: -1.8%
13 | Nc1cccc2ccc([As](=O)(O)O)cc12 | inactive: -25.1%
14 | Cc1ccc(OP(=O)(Nc2nccs2)Oc2ccc(C)cc2)cc1 | inactive: -2.75%
15 | COc1ccccc1OP(=O)(Nc1ccc(C)cn1)Oc1ccccc1OC | inactive: -7.3%
16 | Clc1ccc(Cl)c(NC2=NCC(CBr)S2)c1 (stereo not given) | inactive: -3.75%
17 | CN1CCCC(OC(=O)C(c2ccccc2)c2ccccc2)C1 (stereo not given) | inactive: 0.24%
18 | NC(=O)c1cc([N+](=O)[O-])cc([N+](=O)[O-])c1N | inactive: 4.7%
19 | Cc1ccc(N/C(=N/P(=O)(N2CCOCC2)N2CCOCC2)N2CCOCC2)cc1 | inactive: 6.98%
20 | CN(C(=O)Cc1ccc(Cl)c(Cl)c1)[C@H]1CCCC[C@H]1N1CCCC1 | inactive: -0.98%
21 | CC(C)CC(=O)NC(Sc1ccc(Cl)cc1)C(Cl)(Cl)Cl (stereo not given) | inactive: -3.8%
22 | Nc1cc(N)c2nonc2c1[N+](=O)[O-] | inactive: 5.66%
23 | O=C(NC(Sc1ccncn1)C(Cl)(Cl)Cl)c1ccccc1 (stereo not given) | inactive: 2.87%
24 | Oc1ccccc1CNc1ccccn1 | inactive: 0.88%
25 | O=[N+]([O-])c1cccc2n[nH]nc12 | inactive: -2.8%

Row | SMILES | activity
26 | CC(=O)N1C2C3N(C(C)=O)C1C1N(C(C)=O)C(C(N1C(C)=O)N3C(C)=O)N2C(C)=O | inactive: 1.42%
27 | CCc1nc2c(n1)c1c(non1O)c1c2no[n+]1[O-] | inactive: -5.66%
28 | O=[N+]([O-])c1cc([N+](=O)[O-])c(CCNc2ccccc2)c([N+](=O)[O-])c1 | inactive: 1.17%
29 | Cc1ccc(NP(=O)(Oc2ccccc2)Oc2ccccc2)nc1 | inactive: -2.68%
30 | COc1ccc(C2=NCC(CBr)S2)cc1 (stereo not given) | inactive: -1.38%
31 | CN(C)C(=O)OCCc1n(C)cc[n+]1C | inactive: 1.27%
32 | CC(C)=N/N=C(\N)N[N+](=O)[O-] | inactive: 4.12%
33 | CC(C)c1nc(Nc2ccccc2)n(P(=O)(N(C)C)N(C)C)n1 | inactive: -9.38%
34 | c1cc(-c2nn[nH]n2)ccc1-c1nn[nH]n1 | inactive: -2.77%
35 | CC1CCN(C(=O)Oc2c(Cl)cc(Cl)c3cccnc23)CC1 | inactive: 5.06%
36 | C[N+]1=C2C=CC=CC=C2SC12C([N+](=O)[O-])=CC([N+](=O)[O-])=C[C-]2[N+](=O)[O-] (stereo not given) | inactive: -30.7%
37 | Nc1ccc([As](=O)(O)c2ccc(N)cc2)cc1 | inactive: 5.58%
38 | CCN(/C(=N/P(=O)(N1CCOCC1)N1CCOCC1)N1CCOCC1)c1ccc(OC)cc1 | inactive: 1.32%
39 | O=C(Nc1cc([As](=O)(O)O)ccc1O)c1ccccc1 | inactive: 1.47%
40 | O=P1(N(CCCl)CCCl)OCCCS1 (stereo not given) | inactive: -7.78%
41 | O=[N+]([O-])c1cccc(NC2=NCC(CBr)S2)c1 (stereo not given) | inactive: 3.74%
42 | COC(=O)C1(C)COP(=O)(Nc2ccccc2)OC1 (stereo not given) | inactive: 0.82%
43 | O=C(O)CNc1ccc([As](=O)(O)O)cc1 | inactive: -0.37%
44 | CC(C)(C)C(=O)NC(Sc1ccncn1)C(Cl)(Cl)Cl (stereo not given) | inactive: 6.35%
45 | O=[N+]([O-])c1ncn(CCn2ncnc2[N+](=O)[O-])n1 | inactive: -3.65%
46 | C[C@H]1OP(=O)(Oc2ccccc2)[C@H](O)[C@H](O)[C@H]1N=[N+]=[N-] (stereo not given in full) | inactive: -0.62%
47 | O=P(Nc1nc2ccccc2s1)(c1ccccc1)c1ccccc1 | inactive: 4.28%
48 | Nc1ccc(CCCCOc2ccccc2)cc1 | inactive: -0.56%
49 | COc1ccc(N)c([N+](=O)[O-])c1[N+](=O)[O-] | inactive: -3.94%
50 | O=P(Nc1ccccn1)(c1ccc(Br)cc1)c1ccc(Br)cc1 | inactive: 1.55%

Row | SMILES | activity
51 | CN(C)C1(CNC(=O)c2ccc(Cl)c(S(N)(=O)=O)c2)CCCCC1 | inactive: 2.76%
52 | Nc1ccc([As](=O)(O)c2ccc([N+](=O)[O-])cc2)cc1 | inactive: 5.34%
53 | C(Cc1nn[nH]n1)Cc1nn[nH]n1 | inactive: -5.17%
54 | C/C(N)=N\P(=O)(OCc1ccccc1)OCc1ccccc1 | inactive: 3.73%
55 | O=C(OC1CN2CCC1CC2)c1cccc(Cl)c1 (stereo not given) | inactive: 1.43%
56 | CC(=O)NC(SC(=S)N(C)C)C(Cl)(Cl)Cl (stereo not given) | inactive: 1.84%
57 | O=[N+]([O-])c1ncn(CCn2cnc([N+](=O)[O-])n2)n1 | inactive: 4.66%
58 | O=[As](O)(c1ccccc1)c1ccc(O)cc1 | inactive: -5.75%
59 | c1nnnn1CCn1cnnn1 | inactive: 3.6%
60 | CC(C)C(=O)NC(Sc1ccccc1)C(Cl)(Cl)Cl (stereo not given) | inactive: 0.59%
61 | O=P(Nc1nccs1)(c1ccccc1)c1ccccc1 | inactive: -4.21%
62 | CCc1cc(O)c([N+](=O)[O-])c(C)c1[N+](=O)[O-] | inactive: -0.63%
63 | CC(C)(C)C(=O)NC(Sc1ccccc1)C(Cl)(Cl)Cl (stereo not given) | inactive: 6.7%
64 | CCOc1ccc(C2=NCC(CBr)S2)cc1 (stereo not given) | inactive: -5%
65 | O=P1(Nc2nc3ccc(Cl)cc3s2)COc2ccccc2O1 (stereo not given) | inactive: -8.06%
66 | CC(=O)Nc1ccc(Oc2c([N+](=O)[O-])cc([N+](=O)[O-])cc2[N+](=O)[O-])cc1 | inactive: 1.8%
67 | CC(=O)Nc1ccc([As](=O)(O)O)c(O)c1 | inactive: -0.04%
68 | COC(=O)C1(C)COP(=O)(NCc2ccccc2)OC1 (stereo not given) | inactive: 7.25%
69 | N#C/C(=C\c1ccc(N(CCBr)CCBr)cc1)C(N)=O | inactive: -8.46%
70 | CC(=O)c1ccc(N2CC2c2ccncc2)cc1 (stereo not given) | inactive: -3.95%
71 | C[C@@H]1C=CCP(=O)(Oc2ccccc2)O1 (stereo not given in full) | inactive: -7.04%
72 | C[C@H]1OP(=O)(Oc2ccccc2)C[C@@H]2O[C@@H]21 (stereo not given in full) | inactive: -3%
73 | Cc1ccccc1CN(C)C(=O)COC(=O)C(O)(c1ccccc1)c1ccccc1 | inactive: 2.37%
74 | O=P1(N(CCCl)CCCl)OCCC2CCCCN21 (stereo not given) | inactive: 4.05%
75 | CCNC(=S)/N=C(\N)N[N+](=O)[O-] | inactive: 12.7%

Row | SMILES | activity
76 | O=C(NC1CCS(=O)(=O)C1)NP(=S)(Oc1ccccc1)Oc1ccccc1 (stereo not given) | inactive: 1.91%
77 | Cc1ccc(NP(=O)(Oc2cccc(C)c2)Oc2cccc(C)c2)nc1 | inactive: 5.65%
78 | c1ccc(-c2nn[nH]n2)c(-c2nn[nH]n2)c1 | inactive: -2.04%
79 | CN(C)C(=O)Oc1noc2ccccc12 | inactive: -4.91%
80 | O=c1c2cc([N+](=O)[O-])ccc2[nH]c2c([N+](=O)[O-])cc([N+](=O)[O-])cc12 | inactive: 8.5%
81 | Cc1ccccc1OP(=O)(Nc1ccccn1)Oc1ccccc1C | inactive: 2.63%
82 | CC(NC(=O)COC(=O)C(O)(c1ccccc1)c1ccccc1)c1ccccc1 (stereo not given) | inactive: 5.95%
83 | CC(=O)NC(SC(=S)N(CC(C)C)CC(C)C)C(Cl)(Cl)Cl (stereo not given) | inactive: 9.92%
84 | Cc1ccc(OP(=O)(Nc2ccccn2)Oc2ccc(C)cc2)cc1 | inactive: -4.47%
85 | COC(=O)c1cc2c(s1)N=C(c1ccccc1)N(C)P2(=O)N1CCOCC1 (stereo not given) | inactive: 4.19%
86 | CCC(=O)N1C2C3N(C(=O)CC)C1C1N(C(=O)CC)C(C(N1C(=O)CC)N3C(=O)CC)N2C(=O)CC | inactive: -7.7%
87 | O=C(OC1CN2CCC1CC2)c1ccccc1 (stereo not given) | inactive: 0.5%
88 | Nc1ccccc1[As](=O)(O)c1ccccc1 | inactive: 0.94%
89 | O=C(O)COc1ccc([As](=O)(O)O)cc1[N+](=O)[O-] | inactive: 1.76%
90 | O=P(Nc1nccs1)(Oc1ccccc1)Oc1ccccc1 | inactive: -2.45%
91 | CCOP1(=S)c2c(C)nn(CCC#N)c2N=C(c2ccccc2F)N1C (stereo not given) | inactive: 5.86%
92 | CN(C(=O)Cc1ccc(Cl)c(Cl)c1)[C@H]1CC[C@@]2(CCCO2)C[C@@H]1N1CCCC1 | inactive: -4.39%
93 | CN(C)C(=O)c1cc([N+](=O)[O-])cc2c1-c1c(cc([N+](=O)[O-])cc1[N+](=O)[O-])C2=O | inactive: 4.93%
94 | O=[N+]([O-])c1ccc2c(c1)nnn2O | inactive: 0.16%
95 | CCOP1(=S)c2c(C)nn(CCC#N)c2N=C(c2ccc(F)cc2)N1C (stereo not given) | inactive: 1.38%
96 | CN(C(=O)Cc1ccccc1)[C@@H]1CC[C@]2(CCCO2)C[C@H]1N1CCCC1 | inactive: -6.56%
97 | N#CCCN(C(=O)COC(=O)C(O)(c1ccccc1)c1ccccc1)c1ccc(F)cc1 | inactive: 1.97%
98 | O=[As](O)(c1cccc(O)c1)c1cccc(O)c1 | inactive: -4.37%
99 | Cc1cccc(OCC(=O)OC2CN3CCC2CC3)c1 (stereo not given) | inactive: -1.83%
100 | CS(=O)(=O)c1ccc(Cl)c(NC(=O)COC(=O)C(O)(c2ccccc2)c2ccccc2)c1 | inactive: -6.15%
